System: cardiac organoids
Conditions: preliminary results, FIG. 22

For mercury chloride, the ATP activity was “decreases in ATP activity”.

Source: patent US20260258333A1, “MULTI-ORGAN "BODY ON A CHIP" APPARATUS UTILIZING A COMMON MEDIA” (Wake Forest University Health Sciences, priority 2016, published 2026)
